We go through 33 molecules from PubChem BioAssay AID736 (The Scripps Research Institute Molecular Screening Center, 2007).

Protein sequences, listed by entry. Tags and fused reporters are not part of them. Lines headed by an entry give the natural chain unless they say otherwise; changes in a name come on top.
UniProt O95136: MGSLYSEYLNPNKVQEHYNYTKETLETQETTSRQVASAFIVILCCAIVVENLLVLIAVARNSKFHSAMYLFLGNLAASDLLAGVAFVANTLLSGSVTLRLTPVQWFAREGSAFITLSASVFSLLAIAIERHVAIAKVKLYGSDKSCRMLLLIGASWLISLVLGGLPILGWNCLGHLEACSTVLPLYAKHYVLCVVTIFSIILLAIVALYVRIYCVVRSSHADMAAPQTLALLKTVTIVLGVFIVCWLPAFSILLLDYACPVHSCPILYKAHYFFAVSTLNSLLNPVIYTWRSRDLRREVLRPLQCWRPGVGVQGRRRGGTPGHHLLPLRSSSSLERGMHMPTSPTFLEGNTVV

One may read the inhibition as the relative decrease from the control value, in per cent.

The list shows a part of the results, in another mix than the full data. Calls of active or inactive are those of the source. No stated cut-off is given here; in the data, active means inhibition above about 45%; inactive means the rest.

This experiment deals with Sphingosine 1-phosphate receptor 2 (Homo sapiens) (UniProt O95136). The experiment can be described thus: human S1P2 receptor antagonists, primary screen, cell-based (AID 736).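 Further: CRE beta-lactamase reporter cells expressing human S1P2 stimulated with S1P; 0% = agonist at EC80 alone and 100% = agonist plus reference antagonist.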 As to conditions: cell-based S1P2 antagonist assay, at 5 µM, active compounds read high.
As for `CC1(CBr)Cn2c(nc3ccccc3c2=O)S1` (stereo not drawn), the inhibition was inactive: 4.7%.

Take `O=P1(Nc2ccccn2)COc2ccccc2OC1`: the inhibition was inactive: -8.31%.

Turning to `Clc1n[nH]nc1-c1nn[nH][15n]1`, the inhibition is inactive: -7.64%.

As for `O=P1(Nc2ncccn2)COc2ccccc2OC1`, the inhibition was inactive: 15.8%.

Take `Cc1ccc(OCC(=O)OC2CN3CCC2CC3)cc1` (stereo not drawn): the inhibition is inactive: -18.7%.

For `O=P1(Nc2ccc(Br)cn2)COc2ccccc2OC1`, the inhibition is inactive: 13.3%.

For the molecule `Cc1nn(-c2ccccc2)c2c1P(=O)(N1CCOCC1)N(C)C(c1ccccc1)=N2` (stereo not drawn), the inhibition was inactive: 14.4%.

Consider `CCOP1(=S)c2c(C)nn(CCC#N)c2N=C(c2ccc(F)cc2)N1C` (stereo not drawn), for which the inhibition is inactive: 5.98%.

With `O=[N+]([O-])c1ccc2c(c1)nnn2O`, the inhibition is inactive: -10.7%.

On to `CCOP1(=S)c2c(C)nn(CCC#N)c2N=C(c2ccccc2F)N1C` (stereo not drawn), for which the inhibition is inactive: 8.32%.

Take `Cc1cccc(OCC(=O)OC2CN3CCC2CC3)c1` (stereo not drawn): the inhibition is inactive: -20.5%.

Take `O=C(OC1CN2CCC1CC2)C12CC3CC(CC(C3)C1)C2` (stereo not drawn): the inhibition was inactive: -15.2%.

For the molecule `ClCCSc1nnc(-c2cccnc2)o1`, the inhibition was inactive: 4.03%.

Regarding `CCN(CC)C(=S)SC(NC=O)C(Cl)(Cl)Cl` (stereo not drawn), the inhibition was inactive: 4.52%.

As to `CCC(C)N(CC(C)C)C(=S)SC(NC(C)=O)C(Cl)(Cl)Cl` (stereo not drawn), the inhibition is inactive: 13%.

In the case of `COP1(=S)c2c(C)nn(CCC#N)c2N=C(c2ccc(F)cc2)N1C` (stereo not drawn), the inhibition is inactive: 5.13%.

Take `O=C(COc1ccccc1)OC1CN2CCC1CC2` (stereo not drawn): the inhibition was inactive: 8.42%.

Turning to `CC1CCN(C(=O)Oc2c(Cl)cc(Cl)c3cccnc23)CC1`, the inhibition is inactive: 3.78%.

Take `CCc1nc2c(n1)c1c(non1O)c1c2no[n+]1[O-]`: the inhibition is inactive: 18.6%.

`O=[N+]([O-])c1cccc2n[nH]nc12`: the inhibition is inactive: -17.9%.

On to `CC(=O)N1C2C3N(C(C)=O)C1C1N(C(C)=O)C(C(N1C(C)=O)N3C(C)=O)N2C(C)=O`, for which the inhibition is inactive: -1.3%.

For `CCOP(=O)(Nc1ccccc1)OCC`, the inhibition was inactive: -9.17%.

For `Oc1ccccc1CNc1ccccn1`, the inhibition was inactive: 7.59%.

Take `Cc1c2non([O-])c-2c(C)[n+](=O)[n+]1[O-]`: the inhibition was inactive: -14.8%.

`CC(C)CC(=O)NC(Sc1ccc(Cl)cc1)C(Cl)(Cl)Cl` (stereo not drawn): the inhibition is inactive: 11.3%.

Consider `CN1CCCC(OC(=O)C(c2ccccc2)c2ccccc2)C1` (stereo not drawn), for which the inhibition was inactive: 0.9%.

Turning to `O=P1(Nc2nc3ccc(Cl)cc3s2)COc2ccccc2O1` (stereo not drawn), the inhibition is inactive: 2.22%.

Turning to `CCC(=O)N1C2C3N(C(=O)CC)C1C1N(C(=O)CC)C(C(N1C(=O)CC)N3C(=O)CC)N2C(=O)CC`, the inhibition was inactive: -12.7%.

Consider `COC(=O)c1cc2c(s1)N=C(c1ccccc1)N(C)P2(=O)N1CCOCC1` (stereo not drawn), for which the inhibition is inactive: -15.3%.

With `CCOC(=O)NC(Sc1ccccc1)C(Cl)(Cl)Cl` (stereo not drawn), the inhibition was inactive: -10.7%.

Consider `O=C(OC1CN2CCC1CC2)c1cccc(Cl)c1` (stereo not drawn), for which the inhibition is inactive: 7.05%.

With `O=P(Nc1nccs1)(c1ccccc1)c1ccccc1`, the inhibition was inactive: -12.8%.

As for `c1nnnn1CCn1cnnn1`, the inhibition was inactive: 0.31%.
